Biological target: T1, PACE4 (Homo sapiens, UniProt P07339)
T1 construct: The enzyme of the present invention prepared from PC-3 culture supernatant; endogenous in cells; host or cells: PC-3 human prostate cancer cells, serum-free culture supernatant, purified by chromatography
T1 sequence (P07339 21-412): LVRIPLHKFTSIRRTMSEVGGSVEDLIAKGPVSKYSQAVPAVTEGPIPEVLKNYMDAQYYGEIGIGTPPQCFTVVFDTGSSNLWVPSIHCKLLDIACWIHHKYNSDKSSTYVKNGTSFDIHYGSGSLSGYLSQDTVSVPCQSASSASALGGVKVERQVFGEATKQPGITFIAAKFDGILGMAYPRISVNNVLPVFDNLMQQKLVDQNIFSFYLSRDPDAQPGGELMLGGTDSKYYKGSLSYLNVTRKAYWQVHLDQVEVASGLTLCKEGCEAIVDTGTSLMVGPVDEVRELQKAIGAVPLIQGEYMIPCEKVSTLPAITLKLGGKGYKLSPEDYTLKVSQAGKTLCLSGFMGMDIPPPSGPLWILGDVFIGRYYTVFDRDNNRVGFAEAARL
Assay: Inhibition of the purified PACE4 by various protease inhibitors (FIG. 5)
Assay type: biochemical
Conditions: pepstatin A 1 μM
Method: A mode of the inhibitory activity of the enzyme of the present invention is summarized in FIG. 5 wherein a concentration of each inhibitor was: aprotinin (0.3 μM), benzamidine (10 mM), elastinal (100 μM), pepstatin A (1 μM), and EDTA (10 mM). […] FIG. 6 depicts fragmentation patterns of plasminogen when reacted at neutral and acidic ranges of pH. […] In FIG. 6, the arrow A (→A) indicates a band corresponding to angiostatin from PC-3 according to Gately et al. whereas the arrow B (→B) indicates a band corresponding to a fragment comprising Kringles 1 to 4 produced by PACE4. […] The N-terminal amino acid residue of each fragment was analyzed to be F-74 for A, P-452 for B and A-700 for C, respectively.
FIG. 2 schematically illustrates procedures for screening PACE4 wherein anti-Mini Plasminogen antibody is used as an immobilized antibody whereas antibody directed to Kringles 1 to 3 of plasminogen is used as a labeled antibody. A predetermined amount of plasminogen and samples are mixed together and the mixture is added to this system. If plasminogen is cleaved at between Kringle 4 and Mini Plasminogen, a color development will become declined in proportion to a degree of the cleavage. An enzyme level is determined based on a rate of this decline in color development. […]

## CC(C)CC(=O)N[C@H](C(=O)N[C@H](C(=O)N[C@@H](CC(C)C)[C@@H](O)CC(=O)N[C@@H](C)C(=O)N[C@@H](CC(C)C)[C@@H](O)CC(=O)O)C(C)C)C(C)C [pepstatin A]
  activity of the enzyme of the present invention in presence of inhibitor: completely inhibited

Reference: US20070117180A1, “Enzyme producing plasma protein fragment having inhibitory activity to metastasis and growth of cancer and plasma protein fragment produced by fragmentation by said enzyme” (priority 1998, published 2007)
